The record followed here is ChEMBL document CHEMBL3632584, “Further Optimization and Evaluation of Bioavailable, Mixed-Efficacy μ-Opioid Receptor (MOR) Agonists/δ-Opioid Receptor (DOR) Antagonists: Balancing MOR and DOR Affinities” (J Med Chem, 2015).

Protein sequences, listed by entry. Tags and fused reporters are not part of them. Lines headed by an entry give the natural chain unless they say otherwise; changes in a name come on top.
UniProt P33533, whole entry: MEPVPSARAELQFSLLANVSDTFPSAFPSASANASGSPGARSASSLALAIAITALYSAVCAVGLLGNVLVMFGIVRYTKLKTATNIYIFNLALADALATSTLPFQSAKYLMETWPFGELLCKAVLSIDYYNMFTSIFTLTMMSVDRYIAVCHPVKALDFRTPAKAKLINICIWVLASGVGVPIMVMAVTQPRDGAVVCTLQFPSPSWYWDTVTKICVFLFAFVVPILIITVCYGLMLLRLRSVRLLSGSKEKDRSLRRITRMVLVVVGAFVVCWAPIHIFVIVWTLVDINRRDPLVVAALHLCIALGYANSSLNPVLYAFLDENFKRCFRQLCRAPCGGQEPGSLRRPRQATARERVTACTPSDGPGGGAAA
UniProt P41145: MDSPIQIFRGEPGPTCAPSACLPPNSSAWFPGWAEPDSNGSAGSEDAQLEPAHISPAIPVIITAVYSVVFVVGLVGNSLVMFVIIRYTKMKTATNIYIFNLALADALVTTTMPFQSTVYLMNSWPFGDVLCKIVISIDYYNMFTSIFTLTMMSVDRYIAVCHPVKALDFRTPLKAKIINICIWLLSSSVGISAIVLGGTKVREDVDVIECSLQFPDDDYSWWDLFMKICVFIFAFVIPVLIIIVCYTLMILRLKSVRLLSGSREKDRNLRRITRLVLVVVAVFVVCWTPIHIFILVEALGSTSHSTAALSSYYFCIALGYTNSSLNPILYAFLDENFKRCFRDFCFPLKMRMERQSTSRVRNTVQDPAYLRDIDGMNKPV

Calls of active or inactive are those of the source. The calls are words filed in the database; no cut-off is given here.

The species named for the first test is Rattus norvegicus. Kind of test: Selectivity ratio, ratio of Ki for rat delta-opioid receptor to Ki for rat mu-opioid receptor. The method, boiled down:
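Competition for 0.2 nM [3H]diprenorphine in membranes (20 µg protein) from C6 cells with rat MOR or DOR, or CHO cells with human KOR. 50 mM Tris-HCl pH 7.4, 1 h at room temperature, then GF/C filtration, five buffer washes, scintillation counting. Nonspecific binding set with 10 µM naloxone. Ki from logistic fit. Mean ± S.E.M., ≥3 assays in duplicate. DOR/MOR ratio taken from the Ki values.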
`Cc1cc(O)cc(C)c1C[C@H](N)C(=O)N[C@@H]1CCCc2ccc(Cc3ccc4ccccc4c3)cc21`: the Ratio Ki stood at 140.

Regarding `CC(=O)N1CC[C@@H](NC(=O)[C@@H](N)Cc2c(C)cc(O)cc2C)c2cc(CC3CCc4ccccc43)ccc21` (mixture of isomers), the Ratio Ki turned out to be 28.

`Cc1cc(O)cc(C)c1C[C@H](N)C(=O)N[C@@H]1CCNc2ccc(CC3CCc4ccccc43)cc21` (mixture of isomers): the Ratio Ki was determined as 136.

Regarding `Cc1cc(O)cc(C)c1C[C@H](N)C(=O)N[C@@H]1CCNc2ccc(Cc3cccc4ccccc34)cc21`, the Ratio Ki was found to be 8.

Take `Cc1cc(O)cc(C)c1C[C@H](N)C(=O)N[C@@H]1CCCc2ccc(Cc3ccccc3)cc21`: the Ratio Ki turned out to be 89.

In the next test the target is Delta-type opioid receptor (Rattus norvegicus) (UniProt P33533). Kind of test: Agonist activity at rat delta-opioid receptor expressed in C6 cell membrane assessed as [35S]GTPgammaS binding for 1 hr by liquid scintillation counting analysis relative to 10 uM DPDPE. It is filed as functional, cell membranes.
In the case of `Cc1cc(O)cc(C)c1C[C@H](N)C(=O)N[C@@H]1CCCc2ccc(Cc3ccc4ccccc4c3)cc21`, the outcome was inactive.

Regarding `CC(=O)N1CC[C@@H](NC(=O)[C@@H](N)Cc2c(C)cc(O)cc2C)c2cc(CC3CCc4ccccc43)ccc21` (mixture of isomers), the outcome was inactive.

Consider `Cc1cc(O)cc(C)c1C[C@H](N)C(=O)N[C@@H]1CCNc2ccc(CC3CCc4ccccc43)cc21` (mixture of isomers), for which the result was inactive.

As for `Cc1cc(O)cc(C)c1C[C@H](N)C(=O)N[C@@H]1CCCc2ccc(Cc3ccccc3)cc21`, the result was inactive.

For the next test, the target named is Kappa-type opioid receptor (Homo sapiens, UniProt P41145). Briefly: Agonist activity at human kappa-opioid receptor expressed in CHO cell membrane assessed as [35S]GTPgammaS binding for 1 hr by liquid scintillation counting analysis relative to 10 uM U69593. Format: functional, cell membranes. On the technique in general: Binding of GTPγS marks nucleotide exchange on a G protein.
Turning to `Cc1cc(O)cc(C)c1C[C@H](N)C(=O)N[C@@H]1CCCc2ccc(Cc3ccc4ccccc4c3)cc21`, the result was inactive.

Consider `Cc1cc(O)cc(C)c1C[C@H](N)C(=O)N[C@@H]1CCNc2ccc(Cc3cccc4ccccc34)cc21`, for which the outcome was inactive.

`Cc1cc(O)cc(C)c1C[C@H](N)C(=O)N[C@@H]1CCCc2ccc(Cc3ccccc3)cc21`: the outcome was inactive.
